This is an account of results in patent publication US20250011366A1, “Prodrugs of Antibiotic Teixobactin” (priority 2021, published 2025).

The series concerns human red blood cells. Put plainly: Hemolytic assay. The settings on record: 1.25 μg/mL, with and without 0.002% polysorbate 80. Format: cell-based. The protocol:
The hemolytic activity of the O-acyl isopeptide prodrugs and the corresponding teixobactin analogues were evaluated with human red blood cells (FIGS. 9A to 9H). Triton X-100 and melittin were used as positive controls and vancomycin and water (vehicle) were used as negative controls in the hemolysis assays. […] In contrast, 0.002% polysorbate 80 had no effect on the hemolytic activity of Lys10-teixobactin and Leu10-teixobactin and little effect on the corresponding O-acyl isopeptide prodrug analogues. When the hemolysis assays were performed with teixobactin, no hemolysis was observed up to 100 μg/mL without polysorbate 80 and modest hemolysis (4%) at 100 μg/mL with 0.002% polysorbate 80.
Preparation of Phosphate-Buffered Saline (PBS) Buffers. A 10×PBS buffer was prepared by dissolving 8.9 g of Na2HPO4, 1.2 g KH2PO4, 40 g NaCl, and 1 g KCl in 500 mL of 18 MO deionized water. The solution was stirred until the buffer salts were completely dissolved. The pH of the 10×PBS buffer was adjusted to 7.4 using either 1 M HCl or 1 M NaOH and was subsequently sterile filtered. To create a 1×PBS buffer, the 10×PBS buffer was diluted 10-fold using 18 MO deionized water. Another 1×PBS buffer was made, supplemented with 0.002% polysorbate 80.
Preparation of human red blood cells. Whole human blood was stored in a 4° C. in K2 EDTA to prevent coagulation. […]
Hemolytic assay readout. […]

On to `CC[C@H](C)[C@H](NC(=O)CN)C(=O)NCC(=O)N[C@@H](C)C(=O)N[C@H](C(=O)N[C@@H](CC(C)C)C(=O)N[C@@H](CCCCN)C(=O)N[C@H](C(=O)N[C@@H](CC(C)C)C(=O)N[C@H](C(=O)N[C@H](C(=O)NCC(=O)N[C@@H](CC(C)C)C(=O)N1CCC[C@H]1C(=O)N[C@@H](C)C(=O)N[C@@H](CC(C)C)C(=O)N[C@H](C(=O)N[C@@H](CO)C(=O)N[C@@H](Cc1c[nH]c2ccccc12)C(=O)N[C@H](C(=O)N[C@@H](CCCCN)C(=O)N[C@@H](CCCNC(=N)N)C(=O)N[C@@H](CCCCN)C(=O)N[C@@H](CCCNC(=N)N)C(=O)N[C@@H](CCC(N)=O)C(=O)N[C@@H](CCC(N)=O)C(N)=O)[C@@H](C)CC)[C@@H](C)CC)[C@@H](C)O)[C@@H](C)O)C(C)C)C(C)C` [melittin], for which the hemolysis was 26-30%.
